Reference: paper PMC7667655, “Targeted Covalent Inhibition of Plasmodium FK506 Binding Protein 35” (ACS Medicinal Chemistry Letters, 2020)

The chains behind the UniProt entries cited, without tags or fusion partners.
UniProt P62942, whole entry: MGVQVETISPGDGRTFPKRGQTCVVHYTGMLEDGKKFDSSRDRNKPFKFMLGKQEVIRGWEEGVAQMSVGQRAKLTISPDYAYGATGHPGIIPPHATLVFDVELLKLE

Biological target: T1, FKBP12 (Homo sapiens, UniProt P62942)
T1 construct: 6His-SUMO (N, cleaved yes); made in house; host or cells: E. coli (identical protocol to FBD35, BL21 DE3)
Assay: Fluorescence polarization competition, FKBP12
Type: binding

CCC(C)(C)C(=O)C(=O)N1CCCC[C@H]1C(=O)O[C@H](CCc1ccc(OC)c(OC)c1)c1cccc(N)c1 [SLF, reference compound]
IC50: 70 nM
